Source: ChEMBL document CHEMBL3351654, “Synthesis, biological evaluation, and 3D QSAR study of 2-methyl-4-oxo-3-oxetanylcarbamic acid esters as N-acylethanolamine acid amidase (NAAA) inhibitors” (J Med Chem, 2014)

Biological target: T1, N-acylethanolamine-hydrolyzing acid amidase (Rattus norvegicus, UniProt Q5KTC7)
T1 sequence (Q5KTC7 whole entry): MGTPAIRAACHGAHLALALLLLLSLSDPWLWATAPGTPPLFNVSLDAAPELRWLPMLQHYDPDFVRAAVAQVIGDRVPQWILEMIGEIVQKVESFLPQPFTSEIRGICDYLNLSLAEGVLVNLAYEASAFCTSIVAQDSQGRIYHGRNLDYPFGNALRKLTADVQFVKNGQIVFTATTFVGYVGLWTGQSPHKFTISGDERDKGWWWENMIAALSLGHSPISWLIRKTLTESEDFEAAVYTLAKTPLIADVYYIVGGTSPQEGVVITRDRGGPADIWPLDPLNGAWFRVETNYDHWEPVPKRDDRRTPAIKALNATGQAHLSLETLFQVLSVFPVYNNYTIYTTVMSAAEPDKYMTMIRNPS
Assay: Inhibition of NAAA in Sprague-Dawley rat lung assessed as inhibition of hydrolysis of 10-cis-heptadecenoylethanolamide by UPLC/MS method
How it was run: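 Native NAAA enzyme prepared from rat lungs, not a recombinant construct. The substrate, 10-cis-heptadecenoylethanolamide, is an unnatural fatty acid ethanolamide. Inhibition of its hydrolysis was measured, and the median inhibitory concentration (IC50) was reported.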

| SMILES | IC50 [µM] |
| --- | --- |
| C[C@@H]1OC(=O)[C@@H]1NC(=O)OC1CCCCC1 | 5.42 |
| C[C@@H]1OC(=O)[C@@H]1NC(=O)OCC(C)(C)CCc1ccccc1 | 3.43 |
